This test concerns GLT-1. The note with it: 50 mg/kg daily IP, last 6 days of extinction training; cocaine self-administering rats; nucleus accumbens core, normalized to calnexin; FIG. 1.

With `C[C@@H](O)[C@H]1C(=O)N[C@@H]1[C@@H](C)C(=O)N1CCN(C)CC1` [MC-100093], the GLT-1 expression result is recorded as “increased GLT-1 expression relative to the Coc-Veh group”.

Values taken from patent US9975879B2, “Beta lactams as modulators of glutamate uptake and methods for use thereof” (Temple University of the Commonwealth System of Higher …, priority 2013, dated 2018).
